The results in this text go back to patent publication US9102755B2, “Highly stabilized epidermal growth factor mutants” (PnP Biopharm Co., Ltd., priority 2013, dated 2015).

This series can be described thus: Solubility of wild-type and mutant EGFs in 20 mM sodium phosphate (pH 5.5). The series is classed as physicochemical. The following applies: for Solubility: 1 mg in 1 ml 20 mM sodium phosphate pH 5.5, supernatant, Bradford and UV method; for Solubility (Comparison with wild-type %): 20 mM sodium phosphate pH 5.5, relative to wild-type EGF. The protocol:
1 mg of the respective wild-type and mutant EGFs prepared was dissolved in 1 ml of 20 mM sodium phosphate (pH 5.5 that is the similarly pH environment as cosmetics). In order to remove undissolved EGF, the mixture thus obtained was centrifuged and then supernatant was obtained. The concentration of the supernatant thus obtained was measured by using a Bradford method and UV method.

The term Solubility denotes the concentration that dissolves in the medium under given conditions. Low values mean little dissolved substance, high ones much dissolved substance. Regarding “D-35-6: EGF mutant, 35th valine substituted with glutamic acid (SEQ ID NO: 80) (CNCVEGYIGE)”, the Solubility was found to be 532.8 µg/mL and the “Solubility (Comparison with wild-type %)” value came out at 105%.

“D-34-2: EGF mutant, 34th valine substituted with glutamic acid (SEQ ID NO: 76) (NSDSECPLSHDGYCLHDGVCMYIEALDKYACNCEVGYIGERCQYRDLKWWELR; Epidermal growth factor; UniProt P01133 971-1023, looked up, variant V34E)”: the Solubility amounted to 574.1 µg/mL and the “Solubility (Comparison with wild-type %)” value is reported as 113%.

As to “D-38-9: EGF mutant, 38th isoleucine substituted with serine (SEQ ID NO: 83) (CNCVVGYSGE)”, the Solubility was found to be 497.2 µg/mL and the “Solubility (Comparison with wild-type %)” value amounted to 98%.

Take “B-19-3: EGF mutant, 19th valine substituted with glutamic acid (SEQ ID NO: 68) (NSDSECPLSHDGYCLHDGECMYIEALDKYACNCVVGYIGERCQYRDLKWWELR; Epidermal growth factor; UniProt P01133 971-1023, looked up, variant V19E)”: the Solubility is 482.2 µg/mL and the “Solubility (Comparison with wild-type %)” value is on record as 95%.
